Experimental data reported in publication PMC2662380 (Journal of medicinal chemistry, 2008).

Tested on: MDA-MB-231 human breast cancer cell line

For `CN[C@@H](C)C(=O)N[C@H]1Cc2ccccc2[C@H]2CCC[C@@H](C(=O)NC(c3ccccc3)c3ccccc3)N2C1=O` [Compound 8], which “times less potent than 5 in cell growth inhibition” value is on record?
The value was 20 times.
